Measurements: patent US11236080B2, “Protein kinase inhibitors” (Princeton Drug Discovery Inc, priority 2016, dated 2022)
pIC50: −log10 of the molar value.

Tests used:
[1] = test system: Mino cells; assay: Cell inhibition assay (PrestoBlue cell viability); assay type: cell-based; conditions: Homo sapiens, 48 h incubation, read-out: IC50 inhibition of growth of Mino
Experimental: (§1) Cell lines of SU-DHL-4 (ATCC® CRL-2957™), K-562 (ATCC® CCL-243™), and Mino (ATCC® CRL-3000™) were purchased from American Type Culture Collection (ATCC, Manassas, Va.). SU-DHL-4 cells and Mino cells grew in ATCC-formulated RPMI-1640 medium (ATCC) supplemented with 10% fetal bovine serum (FBS)(Gibco, Life Technologies) (complete medium) a T-75 flask at 37° C. under 5% CO2 with saturated humidity. K-562 cells grew in ATCC-formulated Iscove's Modified Dulbecco's Medium (IMDM) supplemented with 10% FBS (Gibco, Life Technologies) (complete medium) a T-75 flask at 37° C. under 5% CO2 with saturated humidity. When the cells grew to a concentration of approximately 1×10^6 cells/mL, they were diluted to 2.5-5×10^4 cells/mL with the corresponding complete medium for each cell line. […] The absorptions at 570 and 600 nm were measured with a SpectraMaxMicroplate reader (Molecular Devices). The absorbance at 570 nm was normalized to that at 600 nm. The normalized absorbance at 570 nm was used for IC50 calculation following the median-effect plot method (TC Chou. Theoretical basis, experimental design, and computerized simulation of synergism and antagonism in drug combination studies. Pharmacol Rev. 2006; 58:621-681).

[2] = test system: diffuse large B-cell lymphoma cell line SU-DHL-4; assay: Cell inhibition assay (PrestoBlue cell viability); assay type: cell-based; conditions: Homo sapiens, SU-DHL-4, 48 h, 48 h incubation; read-out: IC50 inhibition of growth of SU-DHL-4
Experimental: as §1

[2H]c1cc(C)c(NC(=O)c2cnc(Nc3cc(N4CCN(CCO)CC4)nc(C)n3)s2)c(Cl)c1 was tested, and the pIC50 [1] was over 7.30 and the pIC50 [2] was over 7.70.
